The data set concerns fluorophore-labeled thrombin substrate (fPR-x-S extended with glycine spacers and a C-terminal cysteine) on nanoworms.

As for “human thrombin (Haematologic Technologies)”, the “sample fluorescence (fluorogenic NW protease assay)” value was “increased sample fluorescence by more than 25-fold within ten minutes”.
